# Source: the supplement of paper PMC8183993
# Most of the lowest values are listed elsewhere, so they are rarer here than in the full data.
# Tested on: U2OS
# Assay: nuclei count (viability) relative to DMSO (% of DMSO); higher = more viable cells
# Settings: 10 µM; 24 h
# Procedure: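 Primary image-based screen in U2OS cells: compounds at 10 uM for 24 h, then a 1 h o-propargyl-puromycin (OPP) pulse, click labelling, and high-throughput microscopy. Mean cytoplasmic OPP intensity and nuclei count were normalised to DMSO wells within each plate (DMSO = 100) and averaged over triplicate plates.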
row,SMILES,nuclei count
1,COc1cc(Br)c(C[N+]2(CCOCCC3CCC4CC3C4(C)C)CCOCC2)cc1OC (stereo unspecified) [Pinaverium bromide],107
